Patent US10016498B2, “D-amino acid derivative-modified peptidoglycan and methods of use thereof” (priority 2012, dated 2018)

How the values were obtained:
C. glutamicum = test: norDala labeling detected with tetrazine-fluorescein; details: 5 mM or 20 mM norDala, 10 uM tetrazine-fluorescein
E. coli PG = test: HPLC and mass spectrometry of muropeptides from purified PG; assay type: cell-based, Escherchia coli; details: E. coli incubated in azDala alone

Compound | cell surface fluorescence after conjugation with tetrazine-fluorescein (C. glutamicum) | fraction of D-alanine replaced with the synthetic analog, tetrapeptide pool (E. coli PG) | fraction of D-alanine replaced with the synthetic analog, total muropeptide population (E. coli PG) [%]
norbornene-D-alanine | cell surface fluorescence |  | 
[N-]=[N+]=NC[C@@H](N)C(=O)O |  | roughly 50% | 15
